Laboratory results: patent US20220387405A1, “METHODS OF TREATMENT WITH N-((R)-1-(3-CHLOROPYRIDIN-2-YL)-2,2,2-TRIFLUOROETHYL)-2-((S)-2,6-DIOXOPIPERIDIN-3-YL)-1-OXOISOINDOLINE-5-CARBOXAMIDE” (CELGENE CORPORATION, priority 2021, published 2022)

Test system: human peripheral blood (PB) lymphocytes
Assay: In vitro mammalian cell micronucleus test
Conditions: 4 hours with and without S9, 24 hours without S9; compared with negative controls
Procedure: Compound 1 was tested in the in vitro mammalian cell micronucleus test in human peripheral blood (PB) lymphocytes in the presence and absence of a metabolic activation system, Aroclor-induced rat liver fraction (S9), for 4 hours, and in the absence of S9 for 24 hours. The highest concentration tested was 481 μg/mL. Dimethyl sulfoxide (DMSO) was used as the solvent. […] In addition, 2 lower concentrations with appropriate concentration and cytotoxicity spacing were chosen for micronucleus scoring in each regime.

mitomycin C
proportion of micronucleated binucleate cells (MBC): statistically significant increases
